## Ab-14 light chain CDR variants: yeast mating affinities

Target: peptide PDVDLGDISGINAS, taken from heptad repeat 2 (HR2) of SARS-CoV-2 spike.

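This is the validation round: designs drawn from the data on random variants, tested in the same kind of assay. Several design methods are mixed in this list. The scFvs were displayed on barcoded MATa yeast, the peptide on MATalpha yeast. The frequency of each diploid, read from paired DNA barcodes, reflects how well the two displayed proteins bind. Read counts were normalised to the haploid input and turned into Kd by a linear fit to BCL2-family pairs of known affinity, for each replicate. Mating was done six times.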

The variants keep the heavy chain, the linker and the frameworks of Ab-14 (scFv order VH, a 15-residue (Gly4Ser)3 linker, VL).
VH: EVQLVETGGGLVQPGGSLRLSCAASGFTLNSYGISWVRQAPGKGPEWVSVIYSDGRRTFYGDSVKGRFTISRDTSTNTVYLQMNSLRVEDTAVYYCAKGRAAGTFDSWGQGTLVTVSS
VL: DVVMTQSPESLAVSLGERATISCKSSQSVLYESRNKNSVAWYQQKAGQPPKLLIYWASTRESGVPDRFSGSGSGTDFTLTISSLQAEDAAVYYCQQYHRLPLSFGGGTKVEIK

The parent's light chain CDRs are KSSQSVLYESRNKNSVA, WASTRES, QQYHRLPLS; each variant's own CDRs replace them letter for letter.
Affinities are written as log10 Kd with Kd in nM; a lower number is a better binder.
A pair that was not seen in that replicate is written "ND"; this usually means weak binding, but a binder can also be missed.

CDR-L1	CDR-L2	CDR-L3	replicates, log10 nM	signal with controls
KLSQSELYESRNKNSVA	NASTRES	QQYHRLPLE	-0.03 / 0.32 / -0.44 / -0.72 / -0.36 / 0.65	0/18
TIYQTLSIGSRNRSNVA	EVSERLN	QQYDRLPLI	1.28 / 1.89 / 2.28 / 1.62 / 3.35 / 3.42	0/18
TLSQSWGMESRHKNNVA	QEETREK	QQYFRLPIS	ND / ND / ND / ND / ND / ND	0/18
KVDFLGDMESRNKNSVA	SASTRES	QQYHRLPLS	0.04 / -0.05 / -0.18 / -0.19 / -0.22 / -0.12	2/18 (2.35)
KLSQSHLYESRNKNSVA	NASYRLS	QQYHRLPLS	0.18 / -0.07 / -0.06 / -0.10 / -0.12 / 0.02	2/18 (2.43)
KSSQSVLQESRNKNSVA	EASTRES	QQYHRLPLS	-0.05 / -0.31 / -0.31 / -0.48 / -0.12 / -0.33	0/18
KLSQSWLYGSRNANSVA	NASQREE	QQYHRLPLS	-0.08 / -0.49 / -0.44 / -0.46 / -0.41 / -0.40	0/18
KLQWQQYGENQQEAAIA	NETTVAQ	QQYAKLPLT	2.17 / 0.62 / 0.69 / 1.09 / 0.89 / 1.30	1/18 (3.13)
KSSQSWFYESRNKESVA	GASTRES	QQYHRLELV	ND / 0.59 / 0.35 / 0.69 / 1.88 / 1.13	0/18
KLPQSVLYESRNKNNVA	GASTRES	QQYHRLPLS	-0.18 / -0.34 / -0.34 / -0.34 / -0.35 / -0.24	0/18
KSYQSVLYESNNKNSVA	WASTRES	QQYHRLPLS	ND / 2.19 / ND / 2.50 / 2.58 / 2.45	0/18
KFSQSVLYESRNWNSVA	NASTRES	QQYHRLPLS	0.13 / 0.16 / -0.13 / 0.02 / 0.00 / 0.14	1/18 (2.23)
KVEQSNDYESRNKQSVA	NASQRLK	QQYHRLPLS	0.50 / 0.48 / 0.47 / 0.46 / 0.38 / 0.63	0/18
ILSQSVLMGMHLKNSVA	QASTRFS	QQYHRLPLM	2.56 / 1.91 / ND / 2.09 / 2.11 / 1.76	0/18
HSSQSVLYESRNKNSVA	SASTRES	QQYHRLPLS	ND / ND / 0.59 / 2.03 / 1.47 / 2.16	0/18
QISGITGHMSMLKNNVA	EMETREN	QQYDRLPLS	0.91 / 0.69 / 0.90 / 0.92 / 0.76 / 0.84	3/18 (2.64)
KLSMSELYESRNKNSVA	NASTRES	QQYHRLPLS	-0.23 / -0.40 / -0.59 / -0.69 / -0.57 / -0.40	1/18 (3.23)
MMLSHSVEVQNIQNAVA	EASMVYD	QQYVSLPLS	ND / ND / ND / ND / ND / ND	0/18
TIFQERSYEDGDERNIA	DARTRND	QQYNRLPLV	0.51 / 0.46 / 0.28 / 0.59 / 0.64 / 0.49	1/18 (2.79)
QMGYALFHEDAKKKSIA	ENTVKVY	QQYAKLPLT	0.60 / 0.58 / 0.52 / 0.08 / -0.13 / -0.06	0/18
KLQQSELYESRNKNSVA	HASTRCS	QQYHRLPLS	0.32 / 0.31 / 0.34 / 0.21 / 0.10 / 0.40	1/18 (1.52)
KSSQSVLQESRNKKSVA	SASTRES	QQYHRMPLS	0.33 / 1.10 / 0.62 / 0.95 / 0.91 / 0.66	2/18 (2.05)
KSSASHLYESRNANSVA	NASTRES	QQYHRGPLS	ND / ND / ND / ND / ND / ND	0/18
KLSQSVLYESRNKNSVA	HANTRES	QQYHRLPLS	0.26 / 0.27 / 0.12 / 0.06 / 0.20 / 0.29	0/18
KIGMTLNTLMHQKNNVA	DLVEREN	QQYFRLPLS	0.32 / 0.78 / 0.52 / 0.72 / 0.90 / 1.38	0/18
KSSQSVLRESRNKNSVA	WASTRES	AQYHRMPLS	ND / ND / ND / ND / ND / ND	0/18
KFSQSYLYESRNKNSVA	NASTRES	QQYHRLPLS	-0.05 / -0.37 / -0.48 / -0.17 / -0.21 / -0.30	2/18 (2.02)
CSSQSVLYESRNKNSVA	GASTRFS	QQYHRLPLP	ND / ND / ND / ND / ND / ND	0/18
MLGDVAFGLSRKENSVA	DNSTREN	QQYDRLPLS	1.51 / 1.74 / 2.42 / 2.12 / 1.28 / 2.17	2/18 (2.91)
MVSDLVKMGVRNHNSVA	DNSTRGS	QQYDRLPLS	2.77 / 2.03 / 1.12 / 3.21 / 2.13 / 1.76	0/18
KSSISYLIESRNKNSVA	EASTREQ	QQYHRLPLS	-0.04 / -0.06 / -0.22 / -0.36 / -0.15 / 0.20	0/18
KIHQSVLYEDRNINSVA	SASQRYS	QQYHRLPLS	0.14 / 0.01 / -0.09 / -0.22 / -0.22 / 0.11	1/18 (1.93)
KSSQSCLYESPNKNSVA	WATTRES	QCYHRLPLS	ND / ND / ND / ND / ND / ND	0/18
KSSQPVLYEWTNKNSVA	WASTRES	QQYHRLPLS	0.68 / 0.76 / 0.94 / 0.74 / 0.62 / 1.15	2/18 (2.01)
KSSQSVLYESRNRNSVA	WASMRES	QQYHRLPLS	ND / 1.57 / 1.83 / 1.05 / 3.05 / ND	0/18
KSSQSVLYESRSKNSVA	WASTRES	QQQHRLPLS	ND / ND / ND / ND / ND / ND	1/18 (0.95)
HLSWGVLYESRNKNSVA	NASTRES	QQYHRLPLS	-0.22 / -0.28 / -0.56 / -0.45 / -0.55 / -0.21	2/18 (3.25)
KLQMSAEYQSRNKNSVA	SASTREA	QQYHRLPLS	-0.64 / -0.89 / -0.72 / -0.76 / -0.82 / -0.67	0/18
MLQIEPNGYMKMRSNVA	DGSLVRM	QQYARLPLM	1.91 / 1.39 / 1.01 / 1.63 / 1.75 / 1.62	0/18
TLGDMVHTESRNKNSIA	DMRTRES	QQYYRLPLS	-0.02 / -0.44 / -0.09 / -0.54 / -0.50 / 0.30	0/18
KVEQSDLLESRNKQSVA	QASTRES	QQYHRLPLS	-0.08 / 0.08 / -0.24 / -0.38 / 0.06 / -0.11	0/18
KVSDSSAFLSRNRNSVA	DNSTRGS	QQYHRLPLS	0.82 / 0.59 / 0.59 / 0.72 / 0.95 / 1.00	1/18 (1.91)
KIGMTLNQLLHQKNNVA	DLVMREN	QQYHRLPLS	0.24 / 0.32 / -0.34 / -0.05 / 0.10 / -0.17	0/18
KLEQSTLYESRNQNSVA	NASTRES	QQYHRLPLS	0.24 / -0.41 / -0.11 / -0.16 / 0.10 / -0.01	1/18 (1.81)
KASQGVLYESRNKNSVA	GASTRES	QQYHRLPLS	0.44 / -0.04 / 0.08 / -0.03 / -0.10 / 0.22	3/18 (2.75)
KLSQSQLYESRNKNSVA	HASTRES	QQYHRLPLS	0.23 / 0.15 / 0.14 / 0.05 / 0.22 / 0.18	1/18 (2.64)
TISQSAQMESHTKNSVA	DLNVRGS	QQYDRLPLS	0.48 / 1.68 / 0.54 / 0.45 / 0.58 / 0.60	0/18
KLEMSVQMESRNKNSVA	NASTRES	QQYHRLPLS	0.09 / -0.12 / -0.17 / -0.08 / 0.03 / -0.05	1/18 (3.09)
KSSQSVPYESRNKNSVA	EASTRMS	QQYHRLPLS	0.15 / -0.36 / -0.20 / -0.39 / -0.16 / 0.01	0/18

For reference, 4 entries of the list once more:

CDR-L1,CDR-L2,CDR-L3,"replicates, log10 nM",signal with controls
HLSWGVLYESRNKNSVA,NASTRES,QQYHRLPLS,-0.22 / -0.28 / -0.56 / -0.45 / -0.55 / -0.21,2/18 (3.25)
TIYQTLSIGSRNRSNVA,EVSERLN,QQYDRLPLI,1.28 / 1.89 / 2.28 / 1.62 / 3.35 / 3.42,0/18
KSSQSCLYESPNKNSVA,WATTRES,QCYHRLPLS,ND / ND / ND / ND / ND / ND,0/18
KVDFLGDMESRNKNSVA,SASTRES,QQYHRLPLS,0.04 / -0.05 / -0.18 / -0.19 / -0.22 / -0.12,2/18 (2.35)

Values of this round are not directly comparable with the first-round values of the same sequences.
The parent sequence was in this pool as ten entries: three were never detected, three once, and four in most replicates, with averages from 0.34 to 2.37.
Nonspecific signal, from three strains lacking the peptide, appeared in 4% of pairings of all light chain designs, centred on 2.64 (5% of these signals below 1.59); values are not corrected for it. Also given: how often the same scFv was detected with the empty control strains, with their mean in brackets.
The authors' rule: three or more of the six replicates give a measured affinity, fewer mean a poor binder.

Data: MIT Lincoln Laboratory AlphaSeq set, Li et al. 2023, doi:10.1038/s41467-023-39022-2, as distributed in FLAb.